# For some assays here: The strong results were mostly taken out for another list; the other results follow. No rule for the calls is given here. This is a selection; strong and weak results do not stand in their true shares.
# Amino acid sequences for entries named in this document (tags omitted). A change or cut given only in a name is not applied to a line headed by its entry.
# UniProt O43353, whole entry: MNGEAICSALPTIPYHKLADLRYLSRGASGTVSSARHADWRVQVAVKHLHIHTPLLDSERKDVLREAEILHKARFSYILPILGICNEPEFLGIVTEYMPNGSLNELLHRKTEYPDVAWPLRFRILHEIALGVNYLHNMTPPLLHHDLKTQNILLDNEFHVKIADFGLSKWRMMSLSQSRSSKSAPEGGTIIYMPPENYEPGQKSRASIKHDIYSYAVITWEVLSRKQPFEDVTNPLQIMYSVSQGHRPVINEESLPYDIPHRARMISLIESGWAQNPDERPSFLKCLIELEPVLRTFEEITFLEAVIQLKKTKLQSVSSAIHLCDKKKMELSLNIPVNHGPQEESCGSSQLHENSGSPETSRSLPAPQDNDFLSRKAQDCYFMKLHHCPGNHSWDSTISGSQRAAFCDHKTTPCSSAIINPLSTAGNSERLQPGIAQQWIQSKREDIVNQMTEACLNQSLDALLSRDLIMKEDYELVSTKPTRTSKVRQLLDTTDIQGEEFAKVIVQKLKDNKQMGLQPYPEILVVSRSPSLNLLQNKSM
# UniProt O75116: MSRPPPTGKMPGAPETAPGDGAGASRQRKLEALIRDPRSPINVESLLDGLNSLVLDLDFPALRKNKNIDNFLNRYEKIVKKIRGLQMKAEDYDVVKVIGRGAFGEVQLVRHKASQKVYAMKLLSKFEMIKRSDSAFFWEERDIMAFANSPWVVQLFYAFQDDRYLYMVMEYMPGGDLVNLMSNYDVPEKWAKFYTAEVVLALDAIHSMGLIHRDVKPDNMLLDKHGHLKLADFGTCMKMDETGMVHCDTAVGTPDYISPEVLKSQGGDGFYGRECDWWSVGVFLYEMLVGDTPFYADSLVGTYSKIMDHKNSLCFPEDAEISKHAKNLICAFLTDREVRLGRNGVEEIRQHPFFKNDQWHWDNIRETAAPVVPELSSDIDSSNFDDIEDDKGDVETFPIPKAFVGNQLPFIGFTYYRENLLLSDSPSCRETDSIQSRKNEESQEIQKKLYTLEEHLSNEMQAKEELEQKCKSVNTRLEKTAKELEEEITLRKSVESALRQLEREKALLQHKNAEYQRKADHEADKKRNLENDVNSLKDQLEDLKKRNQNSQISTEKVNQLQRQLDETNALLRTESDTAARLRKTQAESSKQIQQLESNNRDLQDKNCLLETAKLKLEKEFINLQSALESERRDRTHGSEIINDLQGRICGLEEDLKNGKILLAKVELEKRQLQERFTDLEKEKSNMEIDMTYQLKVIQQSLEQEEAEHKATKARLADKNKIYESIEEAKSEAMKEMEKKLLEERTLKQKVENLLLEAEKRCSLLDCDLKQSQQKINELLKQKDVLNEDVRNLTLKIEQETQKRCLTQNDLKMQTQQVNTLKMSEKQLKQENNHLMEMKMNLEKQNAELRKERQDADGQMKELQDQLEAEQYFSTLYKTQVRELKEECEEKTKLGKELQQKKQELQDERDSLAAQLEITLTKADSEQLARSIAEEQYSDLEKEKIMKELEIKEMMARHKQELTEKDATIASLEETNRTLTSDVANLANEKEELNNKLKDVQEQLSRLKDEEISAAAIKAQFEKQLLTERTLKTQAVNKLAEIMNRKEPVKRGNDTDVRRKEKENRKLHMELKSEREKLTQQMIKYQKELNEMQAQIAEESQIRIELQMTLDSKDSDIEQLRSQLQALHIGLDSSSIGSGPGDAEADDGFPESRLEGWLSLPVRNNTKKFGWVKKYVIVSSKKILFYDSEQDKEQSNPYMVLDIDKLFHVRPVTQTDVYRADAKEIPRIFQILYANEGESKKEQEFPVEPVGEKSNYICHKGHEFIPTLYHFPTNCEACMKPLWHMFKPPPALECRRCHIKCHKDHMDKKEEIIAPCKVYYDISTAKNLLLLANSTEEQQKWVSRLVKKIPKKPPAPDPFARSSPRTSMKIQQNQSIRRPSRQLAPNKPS
# UniProt O15111: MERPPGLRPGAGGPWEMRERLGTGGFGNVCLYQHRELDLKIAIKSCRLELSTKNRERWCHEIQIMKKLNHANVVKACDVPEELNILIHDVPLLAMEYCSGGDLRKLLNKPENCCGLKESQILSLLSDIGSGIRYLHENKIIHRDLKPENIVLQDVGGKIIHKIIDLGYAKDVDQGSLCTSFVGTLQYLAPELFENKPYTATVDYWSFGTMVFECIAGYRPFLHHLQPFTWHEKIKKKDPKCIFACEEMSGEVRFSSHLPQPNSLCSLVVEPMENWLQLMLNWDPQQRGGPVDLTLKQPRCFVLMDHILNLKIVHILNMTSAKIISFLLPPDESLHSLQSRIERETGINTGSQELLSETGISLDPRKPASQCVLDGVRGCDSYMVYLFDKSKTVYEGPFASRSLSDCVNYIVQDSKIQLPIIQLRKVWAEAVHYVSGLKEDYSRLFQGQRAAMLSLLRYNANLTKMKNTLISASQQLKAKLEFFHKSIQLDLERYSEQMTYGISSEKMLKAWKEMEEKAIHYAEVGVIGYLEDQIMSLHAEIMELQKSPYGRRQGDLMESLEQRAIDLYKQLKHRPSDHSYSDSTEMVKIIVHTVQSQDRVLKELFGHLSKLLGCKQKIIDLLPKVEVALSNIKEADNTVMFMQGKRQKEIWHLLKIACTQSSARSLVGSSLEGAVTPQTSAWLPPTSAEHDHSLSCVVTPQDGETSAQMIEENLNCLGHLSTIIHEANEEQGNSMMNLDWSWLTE
# UniProt Q08881: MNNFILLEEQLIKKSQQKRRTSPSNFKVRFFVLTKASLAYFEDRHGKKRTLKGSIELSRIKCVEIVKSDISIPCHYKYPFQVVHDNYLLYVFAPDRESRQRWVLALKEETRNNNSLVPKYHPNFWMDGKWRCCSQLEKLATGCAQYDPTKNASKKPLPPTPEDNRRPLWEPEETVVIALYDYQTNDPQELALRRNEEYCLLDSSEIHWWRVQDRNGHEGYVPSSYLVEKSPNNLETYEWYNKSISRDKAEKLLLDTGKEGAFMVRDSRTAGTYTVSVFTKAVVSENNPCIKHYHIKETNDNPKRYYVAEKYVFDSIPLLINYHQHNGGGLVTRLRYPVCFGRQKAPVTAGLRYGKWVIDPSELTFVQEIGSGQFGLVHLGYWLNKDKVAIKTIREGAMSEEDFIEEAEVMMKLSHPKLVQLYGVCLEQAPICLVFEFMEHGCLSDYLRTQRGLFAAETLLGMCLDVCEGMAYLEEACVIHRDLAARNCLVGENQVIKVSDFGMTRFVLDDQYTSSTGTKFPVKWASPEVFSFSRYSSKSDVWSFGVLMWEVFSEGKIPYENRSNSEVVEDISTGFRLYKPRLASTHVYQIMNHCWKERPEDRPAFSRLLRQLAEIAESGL
# UniProt P49137, whole entry, looked up: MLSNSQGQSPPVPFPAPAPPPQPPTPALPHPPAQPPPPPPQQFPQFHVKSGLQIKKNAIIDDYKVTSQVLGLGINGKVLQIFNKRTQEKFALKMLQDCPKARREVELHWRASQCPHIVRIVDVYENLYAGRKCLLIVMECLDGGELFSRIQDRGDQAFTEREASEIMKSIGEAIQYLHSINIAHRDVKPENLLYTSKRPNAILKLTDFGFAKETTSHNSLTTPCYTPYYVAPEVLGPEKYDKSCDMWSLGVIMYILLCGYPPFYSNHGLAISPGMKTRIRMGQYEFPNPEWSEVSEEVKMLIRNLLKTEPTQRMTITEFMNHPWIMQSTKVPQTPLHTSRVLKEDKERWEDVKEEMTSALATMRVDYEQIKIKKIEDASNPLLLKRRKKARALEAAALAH
# UniProt Q9Y5S2: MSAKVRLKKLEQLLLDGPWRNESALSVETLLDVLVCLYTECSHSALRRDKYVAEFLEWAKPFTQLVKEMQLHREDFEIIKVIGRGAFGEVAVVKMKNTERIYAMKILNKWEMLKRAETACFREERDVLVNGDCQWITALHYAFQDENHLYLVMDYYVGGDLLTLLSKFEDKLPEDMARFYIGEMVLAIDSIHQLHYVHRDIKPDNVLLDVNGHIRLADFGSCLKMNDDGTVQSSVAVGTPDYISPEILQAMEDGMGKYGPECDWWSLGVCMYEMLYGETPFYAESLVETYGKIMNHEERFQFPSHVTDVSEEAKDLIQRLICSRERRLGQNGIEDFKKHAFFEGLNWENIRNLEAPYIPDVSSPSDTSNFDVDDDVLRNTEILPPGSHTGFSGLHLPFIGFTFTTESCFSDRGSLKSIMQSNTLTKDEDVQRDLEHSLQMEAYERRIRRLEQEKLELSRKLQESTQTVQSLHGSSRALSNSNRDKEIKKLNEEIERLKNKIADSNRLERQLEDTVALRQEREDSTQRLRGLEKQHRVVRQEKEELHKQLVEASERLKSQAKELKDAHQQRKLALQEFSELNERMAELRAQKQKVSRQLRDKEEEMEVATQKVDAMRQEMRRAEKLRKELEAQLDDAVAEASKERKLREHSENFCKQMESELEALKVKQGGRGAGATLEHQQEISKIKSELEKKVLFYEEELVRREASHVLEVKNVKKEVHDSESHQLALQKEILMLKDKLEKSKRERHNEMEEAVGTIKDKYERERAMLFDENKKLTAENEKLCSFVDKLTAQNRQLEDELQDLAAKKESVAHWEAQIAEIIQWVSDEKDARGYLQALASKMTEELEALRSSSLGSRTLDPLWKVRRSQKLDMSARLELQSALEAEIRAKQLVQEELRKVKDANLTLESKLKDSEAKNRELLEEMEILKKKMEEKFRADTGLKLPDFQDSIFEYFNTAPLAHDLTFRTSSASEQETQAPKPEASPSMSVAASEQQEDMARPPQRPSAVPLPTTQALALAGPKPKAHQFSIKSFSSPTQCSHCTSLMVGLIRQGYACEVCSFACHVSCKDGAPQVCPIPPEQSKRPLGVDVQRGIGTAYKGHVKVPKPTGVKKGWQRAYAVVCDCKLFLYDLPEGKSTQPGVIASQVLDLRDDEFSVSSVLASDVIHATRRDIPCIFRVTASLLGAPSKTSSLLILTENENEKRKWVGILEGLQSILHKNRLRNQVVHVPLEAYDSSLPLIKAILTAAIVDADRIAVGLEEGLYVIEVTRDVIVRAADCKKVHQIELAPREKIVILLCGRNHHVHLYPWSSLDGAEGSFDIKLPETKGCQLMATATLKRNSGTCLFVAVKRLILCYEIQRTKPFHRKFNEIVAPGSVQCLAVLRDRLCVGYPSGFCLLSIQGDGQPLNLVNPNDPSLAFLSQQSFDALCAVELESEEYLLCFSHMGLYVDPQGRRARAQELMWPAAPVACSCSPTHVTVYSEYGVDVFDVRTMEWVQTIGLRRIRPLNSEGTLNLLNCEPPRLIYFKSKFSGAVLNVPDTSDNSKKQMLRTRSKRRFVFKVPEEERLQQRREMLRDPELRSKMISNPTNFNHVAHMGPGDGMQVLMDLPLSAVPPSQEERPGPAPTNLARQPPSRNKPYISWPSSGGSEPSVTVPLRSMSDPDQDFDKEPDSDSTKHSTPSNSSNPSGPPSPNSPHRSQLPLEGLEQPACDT
# UniProt O75582, whole entry, looked up: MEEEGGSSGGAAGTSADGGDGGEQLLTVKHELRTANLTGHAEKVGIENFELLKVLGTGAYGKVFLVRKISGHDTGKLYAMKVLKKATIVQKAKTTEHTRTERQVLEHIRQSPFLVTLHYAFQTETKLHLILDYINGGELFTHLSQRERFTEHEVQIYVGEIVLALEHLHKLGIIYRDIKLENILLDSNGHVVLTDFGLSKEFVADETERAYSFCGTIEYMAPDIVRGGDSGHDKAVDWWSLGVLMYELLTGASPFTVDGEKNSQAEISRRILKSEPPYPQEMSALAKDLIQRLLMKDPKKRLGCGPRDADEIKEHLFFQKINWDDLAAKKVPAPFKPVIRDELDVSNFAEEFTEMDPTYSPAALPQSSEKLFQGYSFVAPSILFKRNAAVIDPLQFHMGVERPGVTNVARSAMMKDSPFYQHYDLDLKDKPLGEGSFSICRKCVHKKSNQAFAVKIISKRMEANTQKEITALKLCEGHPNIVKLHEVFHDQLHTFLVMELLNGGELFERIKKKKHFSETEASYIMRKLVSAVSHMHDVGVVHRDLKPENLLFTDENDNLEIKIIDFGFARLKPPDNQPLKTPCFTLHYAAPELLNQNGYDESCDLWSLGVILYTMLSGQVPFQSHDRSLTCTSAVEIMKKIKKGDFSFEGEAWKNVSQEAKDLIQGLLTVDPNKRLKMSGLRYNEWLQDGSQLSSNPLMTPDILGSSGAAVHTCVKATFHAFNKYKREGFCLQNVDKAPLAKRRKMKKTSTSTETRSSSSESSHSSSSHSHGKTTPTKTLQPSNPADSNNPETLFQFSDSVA
# UniProt P54619: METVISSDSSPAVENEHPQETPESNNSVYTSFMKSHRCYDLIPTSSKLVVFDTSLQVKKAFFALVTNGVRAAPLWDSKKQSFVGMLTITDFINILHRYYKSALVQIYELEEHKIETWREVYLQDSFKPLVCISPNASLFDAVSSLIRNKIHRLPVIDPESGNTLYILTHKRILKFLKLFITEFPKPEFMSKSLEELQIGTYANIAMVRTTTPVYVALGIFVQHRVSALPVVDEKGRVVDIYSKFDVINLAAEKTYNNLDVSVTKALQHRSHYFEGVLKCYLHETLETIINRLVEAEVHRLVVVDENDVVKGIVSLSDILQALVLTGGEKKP
# Experiments:
# [1] = target: Receptor-interacting serine/threonine-protein kinase 2 (Homo sapiens) (UniProt O43353); conditions: at 10 µM;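 also: residual kinase activity of the enzyme remaining, given as percent of control, assayed in 8 mM MOPS pH 7.0 buffer with 0.2 mM EDTA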
# [2] = target: Rho-associated protein kinase 2 (Homo sapiens) (UniProt O75116); conditions: at 10 µM
# [3] = target: Macrophage-stimulating protein receptor (Homo sapiens) (UniProt Q04912); conditions: at 1 µM
# [4] = target: Ribosomal protein S6 kinase alpha-6 (Homo sapiens) (UniProt Q9UK32); conditions: at 1 µM
# [5] = target: Serine/threonine-protein kinase Sgk3 (Homo sapiens) (UniProt Q96BR1); conditions: at 1 µM
# [6] = target: Serine/threonine-protein kinase Sgk3 (Homo sapiens) (UniProt Q96BR1); conditions: at 10 µM
# [7] = target: Serine/threonine-protein kinase SIK1 (Homo sapiens) (UniProt P57059); conditions: at 10 µM
# [8] = target: SRSF protein kinase 2 (Homo sapiens) (UniProt P78362); conditions: at 1 µM
# [9] = target: Mitogen-activated protein kinase kinase kinase 7 (Homo sapiens) (UniProt O43318); conditions: at 10 µM
# [10] = target: Serine/threonine-protein kinase TAO1 (Homo sapiens) (UniProt Q7L7X3); conditions: at 10 µM
# [11] = target: Serine/threonine-protein kinase TAO3 (Homo sapiens) (UniProt Q9H2K8); conditions: at 1 µM
# [12] = target: Serine/threonine-protein kinase TAO3 (Homo sapiens) (UniProt Q9H2K8); conditions: at 10 µM
# [13] = target: Serine/threonine-protein kinase TBK1 (Homo sapiens) (UniProt Q9UHD2); conditions: at 1 µM
# [14] = target: TGF-beta receptor type-1 (Homo sapiens) (UniProt P36897); conditions: at 1 µM
# [15] = target: Insulin-like growth factor 1 receptor (Homo sapiens) (UniProt P08069); conditions: at 10 µM
# [16] = target: Inhibitor of nuclear factor kappa-B kinase subunit alpha (Homo sapiens) (UniProt O15111); conditions: at 1 µM
# [17] = target: Inhibitor of nuclear factor kappa-B kinase subunit alpha (Homo sapiens) (UniProt O15111); conditions: at 10 µM
# [18] = target: Insulin receptor-related protein (Homo sapiens) (UniProt P14616); conditions: at 10 µM
# [19] = target: Tyrosine-protein kinase ITK/TSK (Homo sapiens) (UniProt Q08881); conditions: at 10 µM
# [20] = target: Tyrosine-protein kinase JAK2 (Homo sapiens) (UniProt O60674); conditions: at 10 µM
# [21] = target: Tyrosine-protein kinase JAK3 (Homo sapiens) (UniProt P52333); conditions: at 10 µM
# [22] = target: LIM domain kinase 1 (Homo sapiens) (UniProt P53667); conditions: at 10 µM
# [23] = target: Serine/threonine-protein kinase 10 (Homo sapiens) (UniProt O94804); conditions: at 10 µM
# [24] = target: Tyrosine-protein kinase Lck (Homo sapiens) (UniProt P06239); conditions: at 10 µM
# [25] = target: Tyrosine-protein kinase Lyn (Homo sapiens) (UniProt P07948); conditions: at 1 µM
# [26] = target: Mitogen-activated protein kinase 3 (Homo sapiens) (UniProt P27361); conditions: at 10 µM
# [27] = target: Mitogen-activated protein kinase 1 (Homo sapiens) (UniProt P28482); conditions: at 10 µM
# [28] = target: MAP kinase-activated protein kinase 2 (Homo sapiens) (UniProt P49137); conditions: at 10 µM
# [29] = target: Dual specificity mitogen-activated protein kinase kinase 1 (Homo sapiens) (UniProt Q02750); conditions: at 1 µM
# [30] = target: Dual specificity mitogen-activated protein kinase kinase 6 (Homo sapiens) (UniProt P52564); conditions: at 1 µM
# [31] = target: Serine/threonine-protein kinase MRCK beta (Homo sapiens) (UniProt Q9Y5S2); conditions: at 10 µM
# [32] = target: Ribosomal protein S6 kinase alpha-5 (Homo sapiens) (UniProt O75582); conditions: at 10 µM
# [33] = target: Serine/threonine-protein kinase 3 (Homo sapiens) (UniProt Q13188); conditions: at 10 µM
# [34] = target: Serine/threonine-protein kinase 24 (Homo sapiens) (UniProt Q9Y6E0); conditions: at 10 µM
# [35] = target: Serine/threonine-protein kinase Nek11 (Homo sapiens) (UniProt Q8NG66); conditions: at 1 µM
# [36] = target: Serine/threonine-protein kinase Nek2 (Homo sapiens) (UniProt P51955); conditions: at 1 µM
# [37] = target: Serine/threonine-protein kinase Nek2 (Homo sapiens) (UniProt P51955); conditions: at 10 µM
# [38] = target: Serine/threonine-protein kinase tousled-like 2 (Homo sapiens) (UniProt Q86UE8); conditions: at 10 µM
# [39] = target: Testis-specific serine/threonine-protein kinase 1 (Homo sapiens) (UniProt Q9BXA7); conditions: at 10 µM
# [40] = target: Testis-specific serine/threonine-protein kinase 2 (Homo sapiens) (UniProt Q96PF2); conditions: at 1 µM
# [41] = target: Testis-specific serine/threonine-protein kinase 2 (Homo sapiens) (UniProt Q96PF2); conditions: at 10 µM
# [42] = target: Tyrosine-protein kinase Tec (Homo sapiens) (UniProt P42680); conditions: at 1 µM
# [43] = target: High affinity nerve growth factor receptor (Homo sapiens) (UniProt P04629); conditions: at 1 µM
# [44] = target: Serine/threonine-protein kinase ULK3 (Homo sapiens) (UniProt Q6PHR2); conditions: at 10 µM
# [45] = target: Death-associated protein kinase 3 (Homo sapiens) (UniProt O43293); conditions: at 1 µM
# [46] = target: Mast/stem cell growth factor receptor Kit (Homo sapiens) (UniProt P10721); conditions: at 10 µM
# [47] = target: Serine/threonine-protein kinase mTOR (Homo sapiens) (UniProt P42345); conditions: at 10 µM
# [48] = target: Serine/threonine-protein kinase mTOR (Homo sapiens) (UniProt P42345); conditions: at 1 µM
# [49] = target: Serine/threonine-protein kinase mTOR (Homo sapiens) (UniProt P42345); conditions: at 10 µM; remark: listed apart in the source
# [50] = target: T1, Serine/threonine-protein kinase Nek6 (Homo sapiens) (UniProt Q9HC98); conditions: at 1 µM
# T1 sequence (whole entry): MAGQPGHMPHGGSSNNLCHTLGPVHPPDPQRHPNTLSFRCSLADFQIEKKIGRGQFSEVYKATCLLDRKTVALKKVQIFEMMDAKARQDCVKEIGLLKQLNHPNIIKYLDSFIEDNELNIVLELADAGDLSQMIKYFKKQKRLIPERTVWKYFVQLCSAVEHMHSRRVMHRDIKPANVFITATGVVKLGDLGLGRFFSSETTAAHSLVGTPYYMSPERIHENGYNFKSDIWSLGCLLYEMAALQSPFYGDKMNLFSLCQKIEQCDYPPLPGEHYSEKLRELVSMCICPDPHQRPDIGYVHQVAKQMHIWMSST
# [51] = target: Serine/threonine-protein kinase NLK (Homo sapiens) (UniProt Q9UBE8); conditions: at 10 µM
# [52] = target: Serine/threonine-protein kinase PAK 4 (Homo sapiens) (UniProt O96013); conditions: at 1 µM
# [53] = target: PAS domain-containing serine/threonine-protein kinase (Homo sapiens) (UniProt Q96RG2); conditions: at 1 µM
# [54] = target: ALK tyrosine kinase receptor (Homo sapiens) (UniProt Q9UM73); conditions: at 10 µM
# [55] = target: AMP-activated protein kinase (AMPK) alpha-1/beta-1/gamma-1 (Homo sapiens) (UniProt P54619+Q9Y478+Q13131); conditions: at 10 µM
# [56] = target: cAMP-dependent protein kinase catalytic subunit alpha (Homo sapiens) (UniProt P17612); conditions: at 10 µM
# [57] = target: Protein kinase C alpha type (Homo sapiens) (UniProt P17252); conditions: at 10 µM
# [58] = target: Protein kinase C beta type (Homo sapiens) (UniProt P05771); conditions: at 10 µM
# [59] = target: Protein kinase C gamma type (Homo sapiens) (UniProt P05129); conditions: at 10 µM
# [60] = target: Protein kinase C delta type (Homo sapiens) (UniProt Q05655); conditions: at 1 µM
# [61] = target: Protein kinase C epsilon type (Homo sapiens) (UniProt Q02156); conditions: at 1 µM
# [62] = target: Protein kinase C epsilon type (Homo sapiens) (UniProt Q02156); conditions: at 10 µM
smiles,measurement,setting,value
O=C1c2ccccc2-c2nc3nnnn3nc21,residual activity,[1],98%
same,residual activity,[2],89%
same,residual activity,[3],95%
same,residual activity,[4],96%
same,residual activity,[5],97%
same,residual activity,[6],90%
same,residual activity,[7],88%
same,residual activity,[8],101%
same,residual activity,[9],102%
same,residual activity,[10],93%
same,residual activity,[11],98%
same,residual activity,[12],94%
same,residual activity,[13],97%
same,residual activity,[14],91%
same,residual activity,[15],95%
same,residual activity,[16],90%
same,residual activity,[17],86%
same,residual activity,[18],95%
same,residual activity,[19],97%
same,residual activity,[20],103%
same,residual activity,[21],86%
same,residual activity,[22],92%
same,residual activity,[23],102%
same,residual activity,[24],85%
same,residual activity,[25],84%
same,residual activity,[26],92%
same,residual activity,[27],94%
same,residual activity,[28],94%
same,residual activity,[29],99%
same,residual activity,[30],85%
same,residual activity,[31],88%
same,residual activity,[32],88%
same,residual activity,[33],97%
same,residual activity,[34],90%
same,residual activity,[35],97%
same,residual activity,[36],84%
same,residual activity,[37],85%
same,residual activity,[38],98%
same,residual activity,[39],96%
same,residual activity,[40],97%
same,residual activity,[41],100%
same,residual activity,[42],90%
same,residual activity,[43],96%
same,residual activity,[44],92%
same,residual activity,[45],85%
same,residual activity,[46],96%
same,residual activity,[47],93%
same,residual activity,[48],94%
same,residual activity,[49],95%
same,residual activity,[50],inactive: 100%
same,residual activity,[51],87%
same,residual activity,[52],92%
same,residual activity,[53],95%
same,residual activity,[54],96%
same,residual activity,[55],93%
same,residual activity,[56],82%
same,residual activity,[57],93%
same,residual activity,[58],93%
same,residual activity,[59],95%
same,residual activity,[60],91%
same,residual activity,[61],88%
same,residual activity,[62],89%
